Measurements published in US20120301461A1 (Merck Sharp & Dohme, published 2012).
One block for each binder: values may come before it.

By UniProt entry, the sequences of proteins in these tests, tags left out. Residues count along the entry.
UniProt Q8NBP7, 31-692 limits assumed: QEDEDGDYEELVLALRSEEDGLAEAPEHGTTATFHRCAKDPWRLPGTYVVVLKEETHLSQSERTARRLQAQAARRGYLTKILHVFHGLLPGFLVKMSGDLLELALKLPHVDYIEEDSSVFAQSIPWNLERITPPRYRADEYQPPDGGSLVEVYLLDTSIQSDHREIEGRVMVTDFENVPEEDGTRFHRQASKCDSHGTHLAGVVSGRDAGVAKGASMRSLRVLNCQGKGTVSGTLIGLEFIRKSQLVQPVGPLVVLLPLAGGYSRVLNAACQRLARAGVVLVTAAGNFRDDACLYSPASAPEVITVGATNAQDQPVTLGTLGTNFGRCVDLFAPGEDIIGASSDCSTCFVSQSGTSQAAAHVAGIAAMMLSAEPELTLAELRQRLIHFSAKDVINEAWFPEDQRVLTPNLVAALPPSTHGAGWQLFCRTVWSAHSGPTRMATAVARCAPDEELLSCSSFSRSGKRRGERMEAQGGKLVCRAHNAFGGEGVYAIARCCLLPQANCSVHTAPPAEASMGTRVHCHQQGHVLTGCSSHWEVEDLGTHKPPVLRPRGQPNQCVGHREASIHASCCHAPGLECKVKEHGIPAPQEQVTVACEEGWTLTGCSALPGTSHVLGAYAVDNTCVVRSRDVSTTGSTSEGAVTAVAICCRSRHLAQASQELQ
UniProt Q80W65, 35-694 limits assumed: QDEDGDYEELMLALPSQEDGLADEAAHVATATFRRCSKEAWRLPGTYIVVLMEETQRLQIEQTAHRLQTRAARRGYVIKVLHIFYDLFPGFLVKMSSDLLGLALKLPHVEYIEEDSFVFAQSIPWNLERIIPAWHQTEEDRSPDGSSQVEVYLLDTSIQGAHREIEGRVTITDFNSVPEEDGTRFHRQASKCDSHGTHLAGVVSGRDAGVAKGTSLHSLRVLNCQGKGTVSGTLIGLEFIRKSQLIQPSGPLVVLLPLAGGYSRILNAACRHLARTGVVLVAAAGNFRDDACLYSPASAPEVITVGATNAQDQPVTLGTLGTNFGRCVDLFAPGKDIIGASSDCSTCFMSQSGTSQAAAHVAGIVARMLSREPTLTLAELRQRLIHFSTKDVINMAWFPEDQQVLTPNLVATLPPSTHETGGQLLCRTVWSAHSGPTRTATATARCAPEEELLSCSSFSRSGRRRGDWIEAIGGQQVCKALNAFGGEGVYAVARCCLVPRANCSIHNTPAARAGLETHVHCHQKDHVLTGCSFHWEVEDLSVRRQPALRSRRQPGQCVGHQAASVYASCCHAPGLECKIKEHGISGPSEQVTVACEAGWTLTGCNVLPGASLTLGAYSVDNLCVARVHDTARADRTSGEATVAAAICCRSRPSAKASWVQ

Key:
[1] = target: T1, PCSK9 (V5/His-PCSK9; AlexaFluor647-labeled PCSK9), species not stated in Examples 8, 10 and 13 (UniProt Q8NBP7 31-692, limits assumed, AlexaFluor 647 label in Examples 8 and 10; unlabeled in Example 13); assay: TR-FRET PCSK9-LDLR interaction assay: antibody titrated against AF647-PCSK9 (10 nM) and Eu-labeled LDLR ectodomain (~1.5 nM); the blocked ligand is LDLR
T1 construct: also called AF647-PCSK9; AF647-labeled WT PCSK9; not shown: V5 and His tags

[2] = target: T2, murine PCSK9, V5- and His-tagged (mPCSK9v5His) (murine, UniProt Q80W65 35-694); assay: SPR (Biacore 2000), Fab captured on anti-Fab IgG, PCSK9 in flow; mean N=3
T2 construct: also called mouse PCSK9; not shown: V5 and His tags

[3] = target: T3, human PCSK9, V5- and His-tagged (hPCSK9v5His) (human, UniProt Q8NBP7 31-692); assay: as above
T3 construct: Recombinant secreted protein; Peptides 31-49 (prodomain) and 153-; also called wt-hPCSK9; wt-PCSK9; not shown: V5 and His tags

[4] = target: T1, PCSK9 (V5/His-PCSK9; …); assay: TR-FRET PCSK9-1D05 competition assay: unlabeled Fab titrated against V5/His-PCSK9 (10 nM) with AF647-anti-V5 (10 nM); the competitor is Eu(8044)-1D05 IgG (~1.5 nM)
[5] = target: T1, PCSK9 (V5/His-PCSK9; …); assay: cell-based or functional assay
[6] = target: T3, human PCSK9, V5- and His-tagged …; assay: cell-based or functional assay
[7] = target: T2, murine PCSK9, V5- and His-tagged …; assay: SPR (Biacore 2000), IgG captured on goat anti-human IgG, PCSK9 in flow; mean N=2
[8] = target: T3, human PCSK9, V5- and His-tagged …; assay: as above

IC50 [1]: 15.8 nM | koff [2]: 0.000257 s⁻¹ | kon [2]: 86000 M⁻¹ s⁻¹ | Kd [3]: 11.5 nM | koff [3]: 0.000247 s⁻¹ | kon [3]: 22000 M⁻¹ s⁻¹ | IC50 [4]: 33 nM | IC50, inhibition of uptake of AF647-labeled WT PCSK9 (5 ug/ml) into HEK293 or HepG2 cells, by imaging [5]: ~80 nM | IC50, inhibition of PCSK9-dependent loss of cellular LDL uptake (Exopolar assay, HEK cells, PCSK9 5 ug/ml) [6]: 144 nM
B1: m2CX1D05 Fab (Fab, V domains shown)
VH: QVQLVQSGAEVKKPGSSVKVSCKASGGTFNSHAISWVRQAPGQGLEWMGGINPILGIANYAQKFQGRVTITADESTSTAYMELSSLRSEDTAVYYCARHYEIQIGRYGMNVYYLMYRFASWGQGTLVTVSS
VL: DIQMTQSPSSLSASVGDRVTITCRASQGIRSALNWYQQKPGKAPKLLIYNGSTLQSGVPSRFSGSGSGTDFTLTISSLQPEDFAVYYCQQFDGDPTFGQGTKVEIKR
notes: also called Fab 1D05; mPCSK9 2CX1D05 Fab

koff [7]: 0.000215 s⁻¹ | kon [7]: 67000 M⁻¹ s⁻¹ | Kd [8]: 3.6 nM | koff [8]: 0.000316 s⁻¹ | kon [8]: 88000 M⁻¹ s⁻¹ | IC50 [1]: 3.7 nM | IC50, inhibition of PCSK9-dependent loss of cellular LDL uptake (Exopolar assay, HEK cells, PCSK9 5 ug/ml) [6]: 79 nM
B2: 1D05 IgG2m4 (antibody, V domains shown)
VH: B1 VH
VL: B1 VL
notes: also called M2CX1D05 (IgG); IgG 1D05
